According to PubChem BioAssay AID1347071 (National Center for Advancing Translational Sciences (NCATS), 2019):
Hit rate of the full screen: of about 410,000 compounds, about 260 (0.063%) were called active. Only results without a clear call are listed here; the source files them as inconclusive. The call rests on the fitted dose curve; in most records, active means well fitted activation curve with a large enough effect; inconclusive means small, poorly fitted or top-dose-only effect; inactive means no such curve, though single readings can be large or run the other way.

Experiment: qHTS for compounds that reverse cellular toxicity of Amyloid beta (A-beta) peptide in yeast: Primary Screen; further: nearly all actives have a fitted effect of over 55% in size
Details: yeast expressing A-beta42, growth rescue, OD600, 48 h
Description: The A-beta peptide is produced by the processing of the amyloid precursor protein (APP) by two proteases, beta and gamma secretases. […] A-beta42 is regarded as the most amyloidogenic form due to its hydrophobicity; however, precisely how A-beta42 induces neurotoxicity is unclear. To understand further this biology and its potential therapeutic implications for human neurodegenerative disease, a quantitative high-throughput screen for compounds that reverse the cellular toxicity of the A-beta peptide was developed. A yeast based screen was used because it recapitulates the salient feature of protein mis-folding disorder accurately. This cell-based phenotypic screen provides a significant, unbiased advantage by letting the compounds and models inform us which proteins or pathways are most relevant. The ideal chemical candidates would therefore have activity in both our primary yeast and secondary neuronal toxicity assays, as well as in mouse models. They will be valuable tools for dissecting diverse protein homeostasis pathologies and could potentially become the focus for future pre-clinical development. For this luminescence assay, inhibition of A-beta rescues the toxic effect in the yeast cell, resulting in increase of signals and the desired phenotype of "Activator". This screen is run against the Molecular Libraries Small Molecule Repository (MLSMR) and the NCGC Sytravon Library Collection.
NIH Chemical Genomics Center [NCGC]
NIH Molecular Libraries Probe Centers Network [MLPCN]
Assay Submitter (PI): Susan Lindquist, Whitehead Institute, Massachusetts Institute of Technology
[1] Vassar R,et al (1999). Beta-secretase cleavage of Alzheimer's amyloid precursor protein by the transmembrane aspartic protease BACE. Science. 286: 735-741.
[2] Yan R, et al (1999). Membrane-anchored aspartyl protease with Alzheimer's disease beta-secretase activity. Nature. 402: 533-536.
Two and a half microliter / well of yeast growth medium were dispensed in a 1536 assay plate. Compounds were pinned using the Kalypsys robotic system followed by addition of 2.5 uL / well yeast solution. The assay plates were incubated at 30 C. After 48 hr, the absorbance signal at 600 nm was obtained using the PerkinElmer ViewLux plate reader to assess yeast growth. The data was normalized to the positive control of an equimolar mixture of ferric chloride (FeCl3) and clioquinol and to the negative control DMSO.
Potency means the concentration at half of the fitted maximal effect.

Structure (SMILES) | Potency
Cc1ccc(OCC(=O)OC2CN3CCC2CC3)cc1 (centres undefined) | inconclusive: 35.5 µM
CCC(C)N(CC(C)C)C(=S)SC(NC(C)=O)C(Cl)(Cl)Cl (centres undefined) | inconclusive: 15.8 µM
O=P(Nc1nccs1)(c1ccccc1)c1ccccc1 | inconclusive: 0.562 µM
CC(=O)NC(SC(=S)N(C)C)C(Cl)(Cl)Cl (centres undefined) | inconclusive: 20 µM
